The results in this text go back to ChEMBL document CHEMBL6182944, “Substrate Specificity of the Organic Cation Transporters MATE1 and MATE2K and Functional Overlap with OCT1 and OCT2” (J Med Chem, 2025).

What is called Km is the concentration of substrate that gives half-maximal velocity. A word on the Vmax: it is the rate approached at saturating substrate.

For data set [1], the target named is T1, Multidrug and toxin extrusion protein 1 (Homo sapiens, UniProt Q96FL8).
T1 sequence (Q96FL8 whole entry): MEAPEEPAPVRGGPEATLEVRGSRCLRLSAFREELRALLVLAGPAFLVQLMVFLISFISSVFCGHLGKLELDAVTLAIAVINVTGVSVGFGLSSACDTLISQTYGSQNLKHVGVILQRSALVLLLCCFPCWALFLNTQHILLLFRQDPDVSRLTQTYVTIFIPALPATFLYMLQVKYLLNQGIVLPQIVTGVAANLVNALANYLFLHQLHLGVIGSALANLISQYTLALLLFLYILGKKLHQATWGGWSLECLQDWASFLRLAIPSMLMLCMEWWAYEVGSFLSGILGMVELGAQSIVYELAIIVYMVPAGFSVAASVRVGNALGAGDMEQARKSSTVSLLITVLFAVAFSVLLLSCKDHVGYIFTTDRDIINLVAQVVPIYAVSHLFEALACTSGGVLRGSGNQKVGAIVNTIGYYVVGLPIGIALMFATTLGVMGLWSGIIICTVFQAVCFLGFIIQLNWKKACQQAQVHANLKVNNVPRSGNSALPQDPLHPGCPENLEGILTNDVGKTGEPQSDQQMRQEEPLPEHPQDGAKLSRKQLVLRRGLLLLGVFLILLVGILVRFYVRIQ
The data set is described as follows: Substrate activity at MATE1 (unknown origin) expressed in HEK293 cells assessed as intrinsic clearance by measuring ratio of Vmax (maximum transport velocity) over Km measured per mg of protein by HPLC-MS/MS analysis. It is filed as cell-based.

In data set [2] the target is T2, Multidrug and toxin extrusion protein 2 (Homo sapiens, UniProt Q86VL8).
T2 sequence (Q86VL8 whole entry): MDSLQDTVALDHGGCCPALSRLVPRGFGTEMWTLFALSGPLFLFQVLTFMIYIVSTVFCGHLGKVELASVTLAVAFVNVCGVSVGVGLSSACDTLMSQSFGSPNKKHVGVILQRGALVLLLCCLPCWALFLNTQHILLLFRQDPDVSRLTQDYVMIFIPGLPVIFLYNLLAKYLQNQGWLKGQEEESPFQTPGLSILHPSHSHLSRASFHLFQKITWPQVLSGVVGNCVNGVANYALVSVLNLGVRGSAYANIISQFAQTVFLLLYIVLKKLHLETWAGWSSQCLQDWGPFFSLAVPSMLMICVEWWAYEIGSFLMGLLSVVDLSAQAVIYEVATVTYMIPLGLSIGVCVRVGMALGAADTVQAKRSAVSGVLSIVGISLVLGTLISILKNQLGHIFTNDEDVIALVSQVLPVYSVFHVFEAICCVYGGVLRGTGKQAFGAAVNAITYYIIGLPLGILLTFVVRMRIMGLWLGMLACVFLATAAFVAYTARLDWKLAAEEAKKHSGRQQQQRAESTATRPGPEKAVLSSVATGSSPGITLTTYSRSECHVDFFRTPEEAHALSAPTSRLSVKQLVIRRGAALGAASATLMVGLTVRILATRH
Kind of data set: Substrate activity at MATE2-K (unknown origin) expressed in HEK293 cells assessed as intrinsic clearance by measuring ratio of Vmax (maximum transport velocity) over Km measured per mg of protein by HPLC-MS/MS analysis. It is filed as cell-based.

Substrate in the data set “not read”: CC(C)NCC(O)COc1ccc(CC(N)=O)cc1
The data set is described as follows: not read.

Regarding `C[N@+]1(CC2CC2)CC[C@]23c4c5ccc(O)c4O[C@H]2C(=O)CC[C@@]3(O)[C@H]1C5` [METHYLNALTREXONE], the CL was 3.12 µL/min in data set [1] and 0.48 µL/min in data set [2].

B1: Multidrug and toxin extrusion protein 2 (Homo sapiens) (protein)
chain: MDSLQDTVALDHGGCCPALSRLVPRGFGTEMWTLFALSGPLFLFQVLTFMIYIVSTVFCGHLGKVELASVTLAVAFVNVCGVSVGVGLSSACDTLMSQSFGSPNKKHVGVILQRGALVLLLCCLPCWALFLNTQHILLLFRQDPDVSRLTQDYVMIFIPGLPVIFLYNLLAKYLQNQGWLKGQEEESPFQTPGLSILHPSHSHLSRASFHLFQKITWPQVLSGVVGNCVNGVANYALVSVLNLGVRGSAYANIISQFAQTVFLLLYIVLKKLHLETWAGWSSQCLQDWGPFFSLAVPSMLMICVEWWAYEIGSFLMGLLSVVDLSAQAVIYEVATVTYMIPLGLSIGVCVRVGMALGAADTVQAKRSAVSGVLSIVGISLVLGTLISILKNQLGHIFTNDEDVIALVSQVLPVYSVFHVFEAICCVYGGVLRGTGKQAFGAAVNAITYYIIGLPLGILLTFVVRMRIMGLWLGMLACVFLATAAFVAYTARLDWKLAAEEAKKHSGRQQQQRAESTATRPGPEKAVLSSVATGSSPGITLTTYSRSECHVDFFRTPEEAHALSAPTSRLSVKQLVIRRGAALGAASATLMVGLTVRILATRH
Regarding B1, in “not read”, the Km was 173 µM and the Vmax was found to be 0.00179 µmol/min.
